# Membrane permeability of cyclic peptides

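Lipid, pH, incubation time, direction and concentration are not recorded in the data file. The list need not hold all peptides of the study. Peptides that the database sets to -10, its floor, are left out.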

PAMPA is the parallel artificial membrane permeability assay, which has no cells and reads passive diffusion.
Permeability is given as log10 of P in cm/s; higher (less negative) is more permeable.

Listed for CC(C)C[C@@H]1C(=O)N[C@@H](Cc2ccccc2)C(=O)N2CCC[C@@H]2C(=O)N[C@@H](C)C(=O)N(C)[C@@H](CC(C)C)C(=O)N[C@@H](Cc2ccccc2)CC(=O)N2CCC[C@H]2C(=O)N1C: PAMPA -5.65 (log10 cm/s). For CC(C)C[C@H]1NC(=O)[C@H]2CCCN2C(=O)[C@@H](CC(C)C)NC(=O)CN(Cc2ccccc2)C(=O)[C@@H](C)NC(=O)[C@H](Cc2ccccc2)NC1=O the data give PAMPA -6.42 (log10 cm/s). CC(C)C[C@@H]1C(=O)N(Cc2ccccc2)CC(=O)N2CCC[C@@H]2C(=O)N(C)[C@@H](CC(C)C)C(=O)N[C@@H](Cc2ccccc2)C(=O)N2CCC[C@@H]2C(=O)N(C)[C@@H](C)C(=O)N1C has PAMPA -5.48 (log10 cm/s). CC(C)C[C@@H]1NC(=O)[C@H](C)NC(=O)[C@H]2CCCN2C(=O)[C@H](Cc2ccccc2)NC(=O)[C@H](CC(C)C)NC(=O)[C@@H]2CCCN2C(=O)[C@H](CC(C)C)NC1=O is reported with PAMPA -6.45 (log10 cm/s). For CC(C)C[C@H]1NC(=O)[C@@H]2CCCN2C(=O)CN(Cc2ccccc2)C(=O)[C@H](CC(C)C)N(C)C(=O)[C@H](C)NC(=O)[C@H]2CCCN2C(=O)[C@H](Cc2ccccc2)NC1=O the data give PAMPA -6.04 (log10 cm/s). Listed for CC(C)C[C@@H]1C(=O)N(C)[C@@H](CC(C)C)C(=O)N2CCC[C@H]2C(=O)N[C@H](CC(C)C)C(=O)N[C@@H](Cc2ccccc2)C(=O)N2CCC[C@H]2C(=O)N[C@@H](C)C(=O)N1C: PAMPA -5.77 (log10 cm/s). The entry for CC(C)C[C@@H]1C(=O)N[C@@H](Cc2ccccc2)C(=O)N2CCC[C@@H]2C(=O)N(C)[C@H](C)C(=O)N[C@H](CC(C)C)C(=O)N[C@H](CC(C)C)C(=O)N2CCC[C@@H]2C(=O)N1C lists PAMPA -6.15 (log10 cm/s).

Listed for CC(C)C[C@@H]1NC(=O)[C@H]2CCCN2C(=O)[C@@H](CC(C)C)NC(=O)[C@@H](CC(C)C)N(C)C(=O)[C@H](C)N(C)C(=O)[C@H](Cc2ccccc2)NC1=O: PAMPA -5.59 (log10 cm/s). For CC(C)C[C@@H]1NC(=O)[C@@H](C)NC(=O)[C@H](Cc2ccccc2)NC(=O)[C@H](CC(C)C)N(C)C(=O)[C@@H]2CCCN2C(=O)CN(Cc2ccccc2)C1=O the data give PAMPA -5.59 (log10 cm/s). For CCCN1CC(=O)N(C)[C@@H](CC(C)C)C(=O)N[C@H](CC(C)C)C(=O)N2CCC[C@@H]2C(=O)N(C)[C@@H](CC(C)C)C(=O)N[C@@H](Cc2ccccc2)C(=O)N2CCC[C@H]2C1=O the data give PAMPA -5.20 (log10 cm/s). The entry for CC(C)C[C@@H]1NC(=O)[C@@H](C)N(C)C(=O)[C@H]2CCCN2C(=O)[C@H](Cc2ccccc2)NC(=O)[C@H](CC(C)C)N(C)C(=O)[C@@H]2CCCN2C(=O)[C@@H](CC(C)C)N(C)C1=O lists PAMPA -5.26 (log10 cm/s). Listed for CC(C)C[C@@H]1NC(=O)[C@@H]2CCCN2C(=O)C[C@H](Cc2ccccc2)NC(=O)[C@H](CC(C)C)N(C)C(=O)C[C@H](Cc2ccccc2)NC(=O)[C@@H]2CCCN2C(=O)[C@H](Cc2ccccc2)NC1=O: PAMPA -5.69 (log10 cm/s). For CCCN1CC(=O)N(C)[C@@H](CC(C)C)C(=O)N[C@H](CC(C)C)C(=O)N2CCC[C@H]2C(=O)N[C@@H](CC(C)C)C(=O)N[C@@H](Cc2ccccc2)C1=O the data give PAMPA -5.85 (log10 cm/s). For CC(C)C[C@@H]1NC(=O)[C@@H](C)N(C)C(=O)[C@H](Cc2ccccc2)NC(=O)[C@@H](CC(C)C)N(C)C(=O)[C@@H]2CCCN2C(=O)[C@H](CC(C)C)NC1=O the data give PAMPA -5.37 (log10 cm/s).

CC(C)C[C@@H]1NC(=O)[C@H](C)N(C)C(=O)[C@H](Cc2ccccc2)NC(=O)CN(Cc2ccccc2)C(=O)[C@@H]2CCCN2C(=O)CN(Cc2ccccc2)C1=O has PAMPA -5.48 (log10 cm/s). CC(C)C[C@@H]1C(=O)N(Cc2ccccc2)CC(=O)N2CCC[C@@H]2C(=O)N(C)[C@@H](CC(C)C)C(=O)N[C@@H](Cc2ccccc2)C(=O)N[C@@H](C)C(=O)N1C has PAMPA -5.08 (log10 cm/s).

The 2 highest values of PAMPA among the entries above:

Listed for CC(C)C[C@@H]1C(=O)N(Cc2ccccc2)CC(=O)N2CCC[C@@H]2C(=O)N(C)[C@@H](CC(C)C)C(=O)N[C@@H](Cc2ccccc2)C(=O)N[C@@H](C)C(=O)N1C: PAMPA -5.08 (log10 cm/s).
Listed for CCCN1CC(=O)N(C)[C@@H](CC(C)C)C(=O)N[C@H](CC(C)C)C(=O)N2CCC[C@@H]2C(=O)N(C)[C@@H](CC(C)C)C(=O)N[C@@H](Cc2ccccc2)C(=O)N2CCC[C@H]2C1=O: PAMPA -5.20 (log10 cm/s).

Source: CycPeptMPDB (Li et al. 2023), which took these values from Townsend et al. 2020, doi:10.26434/chemrxiv.13335941.v1.